{"source": "patent US20020183384A1", "about": "“Methods of treating nuclear factor-kappa B mediated diseases and disorders” (priority 2001, published 2002)", "test_system": "NF-κB mediated transcription", "assay": "NF-κB driven β-lactamase reporter assay in ECV-304 NF-κB.βlaZ cells (AURORA CCF2 fluorescence)", "format": "cell-based, human", "conditions": "10 μM compound; ECV-304 NF-κB.βlaZ cells stimulated with 10 ng/mL TNF-α or 100 pg/mL IL-1β, 6 hours at 37° C.; inhibition of maximum blue/green ratio", "excerpt": "Introduction: Described below is an in vitro, cell-based, high throughput screening assay that reliably identifies inhibitors of NF-κB mediated transcription. While the assay described below utilized inhibitors which were sulfonylaminocarbonyl derivatives useful in the present invention, the assay may be used to screen for any inhibitor of NF-κB mediated transcription.\nThe assay takes advantage of AURORA (Aurora Bioscience Corporation, La Jolla, Calif.) fluorescence technology. […] Visually, the uncleaved green fluorescent substrate is sequestered intracellularly and emits green fluorescence, while the cleaved product emits blue fluorescence. Fluorescence is quantitated spectrophotometrically, and the spectral intensity of blue fluorescence versus green fluorescence can be used to calculate the degree of activation of NF-κB.\nThe assay was performed as outlined here and described in detail below. […] After one additional hour, the plates were read in a fluorometer at the blue 395 nm/460 nm (excitation/emission) and green 395 nm/530 nm wavelengths. Then the blue/green emission ratio was calculated. Percent inhibition was calculated by comparing fluorescence in the presence of a sulfonylaminocarbonyl derivative useful in the present invention with fluorescence in the absence of said sulfonylaminocarbonyl derivative under conditions of maximum stimulation with TNF-α or IL-1β. […]", "data": [{"smiles": "CC(C)CCN(CCC(C)C)S(=O)(=O)NC(=O)Nc1c(C(C)C)cccc1C(C)C", "note": "[Example 74, Urea, N-[[bis(3-methylbutyl)amino]sulfonyl]-N′-[2,6-bis(1-methylethyl)phenyl]-]", "values": [{"measurement": "Percent Inhibition at 10 μM", "result": 37.58, "unit": "%"}]}]}
